Test system: Sprague Dawley rats
Assay: Pilocarpine-induced status epilepticus (SE) protection assay in rats
Conditions: for Average weight change: ± S.E.M.
[1] = 18.75 mg/kg i.p., 0 hours after first stage III seizure
[2] = 37.5 mg/kg i.p., 0 hours after first stage III seizure
[3] = 37.5 mg/kg i.p., 0.25 hours after first stage III seizure
[4] = 50 mg/kg i.p., 0 hours after first stage III seizure
[5] = 75 mg/kg i.p., 0 hours after first stage III seizure
[6] = 75 mg/kg i.p., 0.25 hours after first stage III seizure
[7] = 75 mg/kg i.p., 0.5 hours after first stage III seizure
[8] = 100 mg/kg i.p., 0 hours after first stage III seizure
[9] = 100 mg/kg i.p., 0.25 hours after first stage III seizure
[10] = 112.5 mg/kg i.p., 0.5 hours after first stage III seizure
[11] = 150 mg/kg i.p., 0.5 hours after first stage III seizure
[12] = 200 mg/kg i.p., 30 hours after first stage III seizure

CC[C@@H](C)[C@@H](CC)C(=O)NC(N)=O (racemic) [Compound 4, 1-(2-ethyl-3-methyl-pentanoyl)-urea]
Died [1]: 0
Prot./Tested [1]: 3/7
Average weight change [1]: −7.9 ± 6.5 grams
Comments [2]: Sedated
Died [2]: 0
Prot./Tested [2]: 6/8
Average weight change [2]: +8.8 ± 5.4 grams
Died [3]: 0
Prot./Tested [3]: 9/15
Average weight change [3]: −13.3 ± 3.4 grams
Died [4]: 1
Prot./Tested [4]: 4/8
Average weight change [4]: −3.6 ± 6.5 grams
Comments [5]: Sedated
Died [5]: 0
Average weight change [5]: +15.6 ± 2.2 grams
Comments [6]: Sedated
Died [6]: 0
Average weight change [6]: −3.1 ± 6.2 grams
Comment [7]: Sedated
Died [7]: 2
Prot./Tested [7]: 4/8
Average weight change [7]: −14.2 ± 1.3 grams
Died [8]: 0
Prot./Tested [8]: 8/8
Average weight change [8]: +9.4 ± 1.1 grams
Died [9]: 0
Prot./Tested [9]: 1/8
Average weight change [9]: −17.5 ± 2.5 grams
Comment [10]: Sedated
Died [10]: 0
Prot./Tested [10]: 6/8
Average weight change [10]: −23.1 ± 3.2 grams
Comment [11]: Sedated
Died [11]: 1
Prot./Tested [11]: 6/8
Average weight change [11]: −21.4 ± 2.4 grams
Died [12]: 1
Prot./Tested [12]: 2/6
Average weight change [12]: −18.0 ± 1.6 grams
ED50 Values, Dose (i.p., pilocarpine model, TPE 0 hours): 22.73 mg/kg
